The experiment concerns Jurkat. Briefly: Antiproliferative activity against human Jurkat T cells after 48 hrs by MTT assay. Type of experiment: functional, cell-based.

For `C/C(=C/c1ccc(C(=O)O)cc1)c1ccc(O)c(C23CC4CC(CC(C4)C2)C3)c1`, the Activity entry was “Dose-dependent effect”.
Take `COCCOCOc1ccc(C(=O)/C=C/c2ccc(C(=O)O)cc2)cc1C12CC3CC(CC(C3)C1)C2`: the Activity result is “Dose-dependent effect”.

For the origin of these results see ChEMBL document CHEMBL1158389, “Highly twisted adamantyl arotinoids: synthesis, antiproliferative effects and RXR transactivation profiles” (Eur J Med Chem, 2009).
